# Measurements published in US7531545B2, “2-amino-3,4-dihydro-pyrido[3,4-d]pyrimidine derivatives useful as inhibitors of β-secretase (BACE)” (Janssen Pharmaceutica, N.V., priority 2005, dated 2009).
# The chains behind the UniProt entries cited, without tags or fusion partners. Residues count along the entry.
# UniProt P56817, 46-501 limits assumed: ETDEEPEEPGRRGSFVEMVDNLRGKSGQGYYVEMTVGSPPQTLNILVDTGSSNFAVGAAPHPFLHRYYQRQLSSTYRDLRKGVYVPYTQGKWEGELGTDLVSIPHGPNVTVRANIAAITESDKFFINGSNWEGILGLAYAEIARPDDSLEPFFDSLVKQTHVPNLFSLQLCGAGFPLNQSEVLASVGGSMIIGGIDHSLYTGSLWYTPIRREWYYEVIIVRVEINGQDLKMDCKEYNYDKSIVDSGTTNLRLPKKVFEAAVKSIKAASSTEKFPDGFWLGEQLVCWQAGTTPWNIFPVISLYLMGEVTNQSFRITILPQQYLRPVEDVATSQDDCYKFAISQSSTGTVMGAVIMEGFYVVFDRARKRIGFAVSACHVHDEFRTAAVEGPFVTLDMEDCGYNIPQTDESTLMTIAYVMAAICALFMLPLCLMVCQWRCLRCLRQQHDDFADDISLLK
# pIC50: −log10 of the molar value.
# Target: human BACE-1 (Homo sapiens, UniProt P56817)
# Experiment: CEREP BACE Inhibition Assay
# Type: biochemical
# Settings: recombinant enzyme
smiles,measurement,setting,value
NC1=Nc2cnc(Oc3ccccc3)cc2CN1[C@@H](CCC(=O)N1CCC(CCO)CC1)C1CCCCC1,% Inhibition @ 1.0 μM,"1.0 μM, percent inhibition of the control activity",82%
same,pIC50,,6.66
